Source: PubChem BioAssay AID1046 (PCMD, 2008)
Only a part is listed here, and it is no random draw. The source made the active and inactive calls.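 Rule for the calls: active = inhibition at or above 40%; inactive = inhibition below 40%.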

target: Prothrombin (Homo sapiens) (UniProt P00734); test: blockers of thrombin peptide substrate cleavage – biochemical, 1536-well, fluorogenic AMC substrate, counter-screen for coagulation protease inhibitor project, primary screen (AID 1046); conditions: alpha-thrombin, Boc-VPR-AMC fluorogenic substrate cleavage; at 5 µM; active compounds read high;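 note: 0% = enzyme with no compound and 100% = wells without enzyme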

For `CP(=O)(Nc1cccc(Br)c1)Oc1ccccc1` (stereo not drawn), which inhibition is on record?
The inhibition was inactive: -0.14%.

Which inhibition does the source give for `CCN(CC)CCCOC(=O)C(O)(c1ccccc1)c1ccccc1` here?
Its inhibition is inactive: 0.12%.

`O=[N+]([O-])c1ccc2c(c1)C=Nc1ccccc1O2` was tested. Which inhibition did it give?
The inhibition was inactive: -4.6%.

`CC(C)(C)c1ccc(OP(C)(=O)Nc2ccc(SC(F)(F)F)cc2)cc1` (stereo not drawn) was tested. Which inhibition did it give?
Its inhibition is inactive: -5.75%.

Which inhibition does the source give for `Cc1cccc(C)c1OP(C)(N)=O` (stereo not drawn) here?
Its inhibition is inactive: -6.61%.

With `Cc1cc(C)cc(OP(C)(N)=O)c1` (stereo not drawn) as the molecule, how does the inhibition read?
The inhibition was inactive: 1.22%.

How did the inhibition turn out when `COc1ccccc1OP(C)(=O)Nc1cc(Cl)ccc1C` (stereo not drawn) was run?
The inhibition was inactive: -17.2%.

With `COc1ccc(OP(C)(=O)Nc2cccc(F)c2)cc1` (stereo not drawn) as the molecule, how does the inhibition read?
Its inhibition is inactive: 0.29%.

`COc1ccccc1OP(C)(=O)Nc1ccc(C)cc1` (stereo not drawn) was tested. Which inhibition did it give?
Its inhibition is inactive: 13.6%.

How did the inhibition turn out when `Cc1ccc(NP(C)(=O)Oc2ccccc2)c(C)c1` (stereo not drawn) was run?
The inhibition was inactive: -8.13%.

Which inhibition does the source give for `CCOC(=O)c1ccc(NP(C)(=O)Oc2ccccc2)cc1` (stereo not drawn) here?
Its inhibition is inactive: -3.86%.

With `CP(=O)(Nc1ccccc1Br)Oc1ccccc1` (stereo not drawn) as the molecule, how does the inhibition read?
Its inhibition is inactive: 0.99%.

How did the inhibition turn out when `COc1ccccc1OP(C)(=O)Nc1ccccc1` (stereo not drawn) was run?
Its inhibition is inactive: -3.05%.

Which inhibition does the source give for `CP(=S)(Nn1cnnc1)Oc1ccccc1` (stereo not drawn) here?
The inhibition was inactive: 1.17%.

Which inhibition does the source give for `CP(=O)(NC(=O)Nc1ccccc1)Oc1ccccc1` (stereo not drawn) here?
The inhibition was inactive: 4.21%.

With `CCc1ccc(OP(C)(=O)N2CCN(c3ccc([N+](=O)[O-])cc3)CC2)cc1` (stereo not drawn) as the molecule, how does the inhibition read?
Its inhibition is inactive: -6.17%.

`Cc1cc(C)cc(OP(C)(=O)Nc2ccc(SC(F)(F)F)cc2)c1` (stereo not drawn) was tested. Which inhibition did it give?
Its inhibition is inactive: 13.5%.

How did the inhibition turn out when `CP(=O)(Nc1ccc(SC(F)(F)F)cc1)Oc1ccc(Cl)cc1` (stereo not drawn) was run?
The inhibition was inactive: 2.79%.

How did the inhibition turn out when `Cc1cccc(C)c1OP(C)(=O)Nc1ccc(SC(F)(F)F)cc1` (stereo not drawn) was run?
Its inhibition is inactive: -11.6%.

`CP(=O)(Oc1ccccc1)OC(c1ccccc1)C(F)(F)F` (stereo not drawn) was tested. Which inhibition did it give?
The inhibition was inactive: -1.23%.

For `CP(=O)(Nc1ccccn1)Oc1ccc(Cl)cc1` (stereo not drawn), which inhibition is on record?
The inhibition was inactive: -5.34%.

`CCOC(=O)c1ccc(NP(C)(=O)Oc2ccc(OC)cc2)cc1` (stereo not drawn) was tested. Which inhibition did it give?
The inhibition was inactive: -2.03%.

With `CCOP(C)(=S)SCC(=O)NC(C)C(=O)O` (stereo not drawn) as the molecule, how does the inhibition read?
The inhibition was inactive: 2.49%.
